Results from patent US20250074888A1, “PYRIDAZINE DERIVATIVES AS MODULATORS OF NLRP3 INFLAMMASOME AND RELATED METHODS” (Neumora Therapeutics, Inc., priority 2021, published 2025).

Chains of the proteins cited; added tags and fusions are not shown.
UniProt Q96P20, whole entry: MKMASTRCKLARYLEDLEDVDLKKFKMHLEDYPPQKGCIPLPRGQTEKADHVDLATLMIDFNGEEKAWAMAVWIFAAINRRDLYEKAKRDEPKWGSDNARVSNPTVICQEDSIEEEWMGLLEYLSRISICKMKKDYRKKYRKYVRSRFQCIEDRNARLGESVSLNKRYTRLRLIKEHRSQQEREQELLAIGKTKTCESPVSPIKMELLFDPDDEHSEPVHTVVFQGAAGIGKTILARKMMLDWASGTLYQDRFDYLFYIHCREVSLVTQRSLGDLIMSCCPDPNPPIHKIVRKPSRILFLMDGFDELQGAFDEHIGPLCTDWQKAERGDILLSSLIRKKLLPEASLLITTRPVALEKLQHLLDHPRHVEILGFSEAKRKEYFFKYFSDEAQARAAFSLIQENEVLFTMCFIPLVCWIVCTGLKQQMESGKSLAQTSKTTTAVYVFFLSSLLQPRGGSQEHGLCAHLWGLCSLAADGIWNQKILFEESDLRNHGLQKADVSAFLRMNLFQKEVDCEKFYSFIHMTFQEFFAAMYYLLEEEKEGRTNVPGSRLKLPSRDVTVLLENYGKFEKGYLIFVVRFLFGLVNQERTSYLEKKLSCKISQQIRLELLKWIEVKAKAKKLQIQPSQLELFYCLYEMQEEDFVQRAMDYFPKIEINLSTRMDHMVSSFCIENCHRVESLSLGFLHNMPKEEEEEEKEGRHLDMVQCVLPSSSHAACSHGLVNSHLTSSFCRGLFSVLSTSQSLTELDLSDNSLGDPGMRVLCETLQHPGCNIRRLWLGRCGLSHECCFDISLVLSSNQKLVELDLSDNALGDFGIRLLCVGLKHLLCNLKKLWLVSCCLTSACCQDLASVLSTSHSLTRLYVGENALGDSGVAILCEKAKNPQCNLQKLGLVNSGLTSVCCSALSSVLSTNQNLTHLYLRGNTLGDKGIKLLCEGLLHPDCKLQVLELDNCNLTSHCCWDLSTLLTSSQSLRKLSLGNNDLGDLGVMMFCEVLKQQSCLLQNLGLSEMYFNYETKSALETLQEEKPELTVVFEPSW

How the values were obtained:
[1] = molecular target: NLRP3 inflammasome (Homo sapiens, UniProt Q96P20); assay: NLRP3 inflammasome activation in THP1 macrophages (LPS priming, nigericin), IL-1β AlphaLISA; settings: read-out: IL-1β Activity; PMA-differentiated THP1, LPS 20 ng/ml 3 hrs, compound 1 hr, Nigericin 6.7 uM 3 hrs, supernatant
[2] = tested on: IL-6; assay: IL-6 release from LPS-primed, nigericin-treated THP1 macrophages, Hu IL-6 AlphaLISA; settings: read-out: IL-6 Activity; PMA-differentiated THP1, LPS 20 ng/ml 3 hrs, compound 1 hr, Nigericin 6.7 uM 3 hrs, supernatant

Cc1cc(-c2ccc(C(F)(F)F)cc2)nnc1N[C@@H]1CCCNC1
IC50 [1]: > 1 µM
IC50 [2]: 5 to 10 µM
